By IC50 is commonly meant the midpoint of a concentration-inhibition curve.

Sequences of proteins named here, by UniProt entry; tags and fusion partners are left off.
UniProt P50750, whole entry: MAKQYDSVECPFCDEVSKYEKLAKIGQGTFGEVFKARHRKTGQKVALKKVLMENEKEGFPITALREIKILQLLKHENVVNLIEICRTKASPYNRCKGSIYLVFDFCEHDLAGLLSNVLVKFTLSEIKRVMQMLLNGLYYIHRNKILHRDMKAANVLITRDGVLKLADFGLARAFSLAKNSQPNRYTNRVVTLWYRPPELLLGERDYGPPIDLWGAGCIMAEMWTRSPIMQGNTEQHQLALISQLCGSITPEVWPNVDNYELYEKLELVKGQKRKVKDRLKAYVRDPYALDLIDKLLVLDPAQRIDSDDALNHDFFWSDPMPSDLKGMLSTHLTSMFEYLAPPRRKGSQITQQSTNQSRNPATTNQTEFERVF

The test addresses CDK9/Cyclin K (Homo sapiens, UniProt P50750). The test can be described thus: Inhibition of human recombinant full length His-tagged CDK9/cyclin K expressed in baculovirus expression system.

Consider `CN1C/C=C/CCOc2cccc(c2)-c2ccnc(n2)Nc2cccc(c2)C1` [ZOTIRACICLIB], for which the IC50 worked out at 3 nM.

The values are drawn from ChEMBL document CHEMBL4346652, “Cyclin-Dependent Kinase 2 Inhibitors in Cancer Therapy: An Update” (J Med Chem, 2019).
